The text below walks through data of patent US6110956A, “N-aryloxyethylamine derivatives for the treatment of depression” (American Home Products Corp., priority 1999, dated 2000).

Protein sequences, listed by entry. Tags and fused reporters are not part of them.
UniProt P31652, whole entry: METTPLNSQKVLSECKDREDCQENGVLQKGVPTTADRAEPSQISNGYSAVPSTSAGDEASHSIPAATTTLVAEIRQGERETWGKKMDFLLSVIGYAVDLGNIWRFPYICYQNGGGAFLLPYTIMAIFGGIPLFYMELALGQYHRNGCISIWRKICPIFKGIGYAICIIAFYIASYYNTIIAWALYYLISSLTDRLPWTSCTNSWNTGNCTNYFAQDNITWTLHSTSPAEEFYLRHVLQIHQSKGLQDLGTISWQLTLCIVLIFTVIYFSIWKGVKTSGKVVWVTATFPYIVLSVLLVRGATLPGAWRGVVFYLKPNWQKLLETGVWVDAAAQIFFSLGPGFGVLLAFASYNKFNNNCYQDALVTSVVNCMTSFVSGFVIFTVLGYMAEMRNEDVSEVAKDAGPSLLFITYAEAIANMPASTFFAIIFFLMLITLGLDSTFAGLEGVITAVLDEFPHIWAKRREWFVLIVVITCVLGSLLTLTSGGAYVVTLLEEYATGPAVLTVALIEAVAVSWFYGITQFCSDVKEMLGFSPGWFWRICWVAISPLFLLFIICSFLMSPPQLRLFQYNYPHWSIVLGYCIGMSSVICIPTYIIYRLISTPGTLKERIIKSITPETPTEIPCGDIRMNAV
UniProt P08908, whole entry: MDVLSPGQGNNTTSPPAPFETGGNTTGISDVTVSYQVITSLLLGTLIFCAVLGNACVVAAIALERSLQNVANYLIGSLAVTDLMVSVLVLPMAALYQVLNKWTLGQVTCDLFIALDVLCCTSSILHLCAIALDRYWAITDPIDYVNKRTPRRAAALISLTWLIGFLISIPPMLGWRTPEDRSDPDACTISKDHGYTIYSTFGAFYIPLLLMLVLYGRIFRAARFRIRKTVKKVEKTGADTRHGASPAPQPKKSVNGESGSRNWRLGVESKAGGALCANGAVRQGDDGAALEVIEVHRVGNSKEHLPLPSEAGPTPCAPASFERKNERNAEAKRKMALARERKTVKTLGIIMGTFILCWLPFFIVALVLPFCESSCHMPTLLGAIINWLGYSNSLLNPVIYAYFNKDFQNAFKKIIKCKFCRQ

The target of one assay is T1, serotonin transporter (Rattus norvegicus, UniProt P31652).
T1 construct: frontal cortical membranes prepared from male Sprague-Dawley rats; from tissue; host or cells: frontal cortical membranes of male Sprague-Dawley rats
The assay can be described thus: serotonin transporter (ST) affinity, 3H-paroxetine binding in frontal cortical membranes. On the set-up: species or system male Sprague-Dawley rats. As to the method:
Briefly, frontal cortical membranes prepared from male Sprague-Dawley rats were incubated with ^3 H-paroxetine (0.1 nM) for 60 min at 25° C. All tubes also contained either vehicle, test compound (one to eight concentrations), or a saturating concentration of fluoxetine (10 μM) to define […]. All reactions are terminated by the addition of ice cold Tris buffer followed by rapid filtration using a Tom Tech filtration device to separate bound from free ^3 H-paroxetine.

The target of another assay is T2, human 5-HT1A receptor (Homo sapiens, UniProt P08908).
T2 construct: expressed in transfected cells
The assay can be described thus: cAMP formation in forskolin-treated 5-HT1A.CHO cells. Conditions: forskolin 1 uM, 10 min, 37° C. In kind it is cell-based. As to the method: The PCR cloning of the human 5-HT1A receptor subtype from a human genomic library has been described previously Chanda et al., Mol. Pharmacol., 43:516 (1993). A stable Chinese hamster ovary cell line expressing the human 5-HT1A receptor subtype (5-HT1A.CHO cells) was employed throughout this study. Cells were maintained in DMEM supplemented with 10% foetal calf serum, non-essential amino acids and penicillin/streptomycin.
The following assays were performed by incubating the cells with DMEM containing 25 mM HEPES, 5 mM theophylline and 10 μM pargyline for a period of 20 minutes at 37° C. Functional activity was assessed by treating the cells with forskolin (1 uM final concentration) followed immediately by test compound (6 concentrations) for an additional 10 min at 37° C. In separate experiments, 6 concentrations of antagonist were preincubated for 20 min prior to the addition of 10 nM 8-OH-DPAT and forskolin. The reaction was terminated by removal of the media and addition of 0.5 ml ice cold assay buffer. Plates were stored at -20° C. prior to assessment of cAMP formation by a cAMP SPA assay (Amersham).
(cAMP levels reflect the balance of adenylyl cyclase and phosphodiesterase activity.)

The pKi is the negative decadic logarithm of the Ki, by convention in mol/L. As usually defined, the Emax is the size of the effect at its maximum, as opposed to the concentration needed.

pKi: −log10 of the molar value. Where two headings read alike, the source gives them in different places.

`COc1ccccc1OCCN[C@H]1CC[C@@H](c2c[nH]c3ccc(F)cc32)CC1` [Example 1a, [(cis)-4-(5-Fluoro-1H-indol-3-yl)-cyclohexyl]-[2-(2-methoxy-phenoxy)-ethyl]-amine]: the pKi on serotonin transporter (3H-paroxetine 0.1 nM, 60 min, 25° C., rat frontal cortical membranes, read-out: ST (Ki)) is 8.17.
`COc1ccccc1OCCN[C@H]1CC[C@H](c2c[nH]c3ccc(F)cc32)CC1` [Example 1b, [(trans)-4-(5-Fluoro-1H-indol-3-yl)-cyclohexyl]-[2-(2-methoxy-phenoxy)-ethyl]-amine] showed an Emax on human 5-HT1A receptor of 92%.
At serotonin transporter, `OC1(CNCCOc2cccc3[nH]ccc23)CCC(c2c[nH]c3ccc(F)cc23)CC1` (stereo not drawn) [Example 13, (1,4)-4-(5-Fluoro-1H-indol-3-yl)-1-{[2-(1H-indol-4-yloxy)-ethylamino]-methyl}-cyclohexanol] gave a pKi of 7.68.
